Test results from publication PMC10301922, “Anti-Oxidant, Anti-Mutagenic Activity and Safety Evaluation of Antrocin” (Toxics, 2023).

Test system: Salmonella typhimurium TA1535
Assay: Antimutagenicity test, TA1535
Settings: TA1535, without S9, against direct mutagen sodium azide

`C=C1CC[C@H]2C(C)(C)CCC[C@@]23C(=O)OC[C@@H]13` [Antrocin, (-)-Antrocin] was tested. Which antimutagenic agent strength did it give?
Its antimutagenic agent strength is “moderately strong antimutagenic agent (inhibition is between 25% and 40%)”.
